# Where a chain is given by its changes, count along the chain named.
# What was measured:
# [1] = biological target: T1, GIPR T168A (Homo sapiens, UniProt P48546, T168A); conditions: GIPR T168A (2.45), mean, n = 5, duplicate
# T1 sequence (P48546 22-466 T168A): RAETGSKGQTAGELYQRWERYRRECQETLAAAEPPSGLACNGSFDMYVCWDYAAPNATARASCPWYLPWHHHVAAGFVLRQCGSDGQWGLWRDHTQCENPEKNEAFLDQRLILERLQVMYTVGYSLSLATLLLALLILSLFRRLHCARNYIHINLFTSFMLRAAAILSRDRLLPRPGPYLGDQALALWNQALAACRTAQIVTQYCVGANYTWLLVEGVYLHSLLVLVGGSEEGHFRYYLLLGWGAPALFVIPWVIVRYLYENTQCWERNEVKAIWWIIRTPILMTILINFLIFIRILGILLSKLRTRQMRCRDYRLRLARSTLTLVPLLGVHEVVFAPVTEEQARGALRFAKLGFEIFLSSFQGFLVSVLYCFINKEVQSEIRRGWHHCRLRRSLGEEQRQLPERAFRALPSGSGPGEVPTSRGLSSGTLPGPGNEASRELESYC
# [2] = biological target: T2, GIPR R183Q (Homo sapiens, UniProt P48546, R183Q); conditions: GIPR R183Q (2.60); normalized to WT GIPR; mean, n = 5, duplicate
# T2 sequence (P48546 22-466 R183Q): T1 sequence (P48546 22-466 T168A) with A147T, R162Q
# [3] = biological target: T3, GIPR I299V (Homo sapiens, UniProt P48546, I299V); conditions: HEK293A, 1 µM GIP minus vehicle, n = 4, P = 0.0305
# T3 sequence (P48546 22-466 I299V): T1 sequence (P48546 22-466 T168A) with A147T, I278V
# [4] = biological target: T4, GIPR R336P (Homo sapiens, UniProt P48546, R336P); assay: cAMP accumulation; type: cell-based; design: host or cells: HEK293
# T4 sequence (P48546 22-466 R336P): T1 sequence (P48546 22-466 T168A) with A147T, R315P
# [5] = biological target: T5, GIPR E354Q (Homo sapiens, UniProt P48546, E354Q); assay: cAMP accumulation; type: cell-based; design: host or cells: HEK293
# T5 sequence (P48546 22-466 E354Q): T1 sequence (P48546 22-466 T168A) with A147T, E333Q
substance,measurement,setting,value
glucose-dependent insulinotropic polypeptide [GIP],logEC50 (Arrestin),[1]; Hill slope 1.0,-9.3
same,Arrestin (Emax),[1]; normalized to WT GIPR,22
same,Arrestin (Emax),[2],4
same,Mean of ΔBRET,[3],0.0859
same,cAMP (Emax),"[4]; HEK293, GIP(1–42) 1 pM–100 nM, 30 min 37 °C, mean of n = 5",42 % of WT GIPR activity
same,logEC50 (cAMP),"[4]; HEK293, Hill slope 1.0, mean of n = 5",-10.7
same,cAMP (Emax),"[5]; HEK293, GIP(1–42) 1 pM–100 nM, 30 min 37 °C, mean of n = 3",116 % of WT GIPR activity
same,logEC50 (cAMP),"[5]; HEK293, Hill slope 1.0, mean of n = 3",-11.2
